This is an account of results in PMC4314249, “Characterizing the Peroxisome Proliferator-Activated Receptor (PPARγ) Ligand Binding Potential of Several Major Flame Retardants, Their Metabolites, and Chemical Mixtures in House Dust” (Environmental Health Perspectives, 2014).

By UniProt entry, the sequences of proteins in these tests, tags left out. Residues count along the entry.
UniProt P37231, 238-503 limits assumed: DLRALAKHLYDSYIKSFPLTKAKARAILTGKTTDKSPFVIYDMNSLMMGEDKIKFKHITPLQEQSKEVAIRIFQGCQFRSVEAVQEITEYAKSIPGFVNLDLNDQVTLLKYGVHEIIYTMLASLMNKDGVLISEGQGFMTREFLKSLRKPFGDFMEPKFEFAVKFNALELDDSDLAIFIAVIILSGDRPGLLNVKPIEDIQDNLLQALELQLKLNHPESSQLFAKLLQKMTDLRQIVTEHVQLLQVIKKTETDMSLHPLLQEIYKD

In this experiment the target is human PPARγ ligand-binding domain (Homo sapiens, UniProt P37231). The experiment can be described thus: PolarScreen PPARγ-Competitor fluorescence polarization ligand binding assay. A general note: Polarisation of emitted light reports the rotation of a fluorescent probe.

One may read the IC50 as the concentration at which inhibition is half-maximal. A low value points to inhibition by little substance. In general, Kd refers to the equilibrium constant for the complex coming apart.

In turn, `CCCCOP(=O)(OCCCC)OCCCC` registered a 50% inhibitory concentration (IC50) (1.25 nM PPARγ Green, 38 nM PPARγ LBD, 3 h room temperature) of 137 µM. Moreover, the “inhibition of the binding between the probe and the PPARγ LBD” value (2,500 μM) is “completely inhibit”. Also, the Kd (read-out: Kd (dissociation constant), calculated from IC50 by equation 3) is 71.5 µM. This compound registered a Relative potency (rosiglitazone set at 1) of 0.0017.
